Here are results for 91 compounds from PubChem BioAssay AID504326 (The Scripps Research Institute Molecular Screening Center, 2011).

Protein sequences, listed by entry. Tags and fused reporters are not part of them.
UniProt P35372, whole entry, looked up: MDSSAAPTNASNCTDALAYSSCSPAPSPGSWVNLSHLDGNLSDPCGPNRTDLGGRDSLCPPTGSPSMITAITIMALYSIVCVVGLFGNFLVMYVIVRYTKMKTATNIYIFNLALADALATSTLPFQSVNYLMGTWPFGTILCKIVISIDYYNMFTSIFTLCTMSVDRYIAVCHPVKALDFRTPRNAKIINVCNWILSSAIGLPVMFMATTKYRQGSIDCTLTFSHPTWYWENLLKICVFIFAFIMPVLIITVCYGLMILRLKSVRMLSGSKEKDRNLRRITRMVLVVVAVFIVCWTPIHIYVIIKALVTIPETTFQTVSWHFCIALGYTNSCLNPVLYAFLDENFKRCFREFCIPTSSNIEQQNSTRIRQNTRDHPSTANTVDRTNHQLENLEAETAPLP
UniProt P41143, whole entry, looked up: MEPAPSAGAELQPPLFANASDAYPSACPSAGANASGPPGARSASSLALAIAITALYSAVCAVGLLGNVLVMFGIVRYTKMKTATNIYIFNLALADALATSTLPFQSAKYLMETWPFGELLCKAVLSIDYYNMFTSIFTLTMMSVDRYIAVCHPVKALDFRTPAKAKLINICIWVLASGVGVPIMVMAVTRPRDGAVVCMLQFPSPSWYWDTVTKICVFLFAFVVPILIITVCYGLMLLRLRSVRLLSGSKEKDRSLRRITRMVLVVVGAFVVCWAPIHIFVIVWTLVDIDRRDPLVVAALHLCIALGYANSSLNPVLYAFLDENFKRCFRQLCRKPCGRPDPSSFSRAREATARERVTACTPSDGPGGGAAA

This is a selection; strong and weak results do not stand in their true shares. Calls of active or inactive are those of the source. Rule as the data show it: active = activation above about 18%; inactive = the rest.

For the experiment, the target named is Mu-type opioid receptor (Homo sapiens) + Delta-type opioid receptor (Homo sapiens) (UniProt P35372+P41143). Description: inducers of mu-delta opioid receptor heterodimers – cell-based, luminescence, primary screen (AID 504326).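 Also: 0% = vehicle-treated cells and 100% = reference agonist.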 To be noted: cells, OPRM1-OPRD1 heterodimerization, at 9.3 µM, hits give high values.
As for `CCC(=O)Nc1nc2ccccc2n1CCN1CCOCC1`, the activation is inactive: -2.02%.

`Cn1c(=O)c2c(ncn2CC(=O)Nc2nc3ccc(F)cc3s2)n(C)c1=O`: the activation is inactive: -1.51%.

As for `CN(C(=O)Cc1ccc(Cl)c(Cl)c1)[C@H]1CCCC[C@@H]1N1CCCC1`, the activation is inactive: 0.59%.

For `c1ccc(CN2CCC(Nc3nc(-c4cccs4)nc4ccccc34)CC2)cc1`, the activation is inactive: 5.83%.

In the case of `Cc1ccc(NP(=O)(Oc2ccccc2F)Oc2ccccc2F)nc1`, the activation is inactive: -0.93%.

`Cc1cccc(NC(=O)Cn2c(=O)n(C)c3ccccc32)c1`: the activation was inactive: -3.41%.

Take `COc1ccc(NC2CCN(C3CC(=O)N(c4ccc(F)c(Cl)c4)C3=O)CC2)cc1` (stereo unspecified): the activation is inactive: 2.5%.

With `O=C(Cn1c(COc2ccccc2)nc2ccccc21)Nc1cccc(Cl)c1`, the activation was active: 22.8%.

Regarding `C[C@@H](NC(=O)Cn1cnc2c(NCc3ccccc3)ncnc21)c1cccc2ccccc12`, the activation is inactive: -4.48%.

With `CCCCOC(=O)Cn1c(=N)n(CCN(CC)CC)c2ccccc21`, the activation is inactive: -4.49%.

With `CC(=O)Nc1ccc([As](=O)(O)O)cc1`, the activation is inactive: -0.27%.

On to `Cn1c(=O)c2ncn(CC(=O)Nc3ccc4c5c(cccc35)CC4)c2n(C)c1=O`, for which the activation is inactive: -0.3%.

Regarding `CCOc1cccc(N2C(=O)CC(n3cnc4ccccc43)C2=O)c1` (stereo unspecified), the activation was inactive: -1.37%.

In the case of `Cc1ccc2c(c1)C1CN(C)CCC1N2C(=O)c1ccccc1NS(=O)(=O)c1ccc(F)cc1` (stereo unspecified), the activation was inactive: -1.04%.

In the case of `O=C(Cn1c(NCCO)nc2ccccc21)NCC(F)(F)F`, the activation is inactive: -2.58%.

For `O=C(O)c1ccccc1[As](=O)(O)O`, the activation was inactive: -2.65%.

Turning to `O=C(Cn1c(COc2ccccc2)nc2ccccc21)Nc1cc(Cl)cc(Cl)c1`, the activation is inactive: 0.61%.

Take `Cn1c(=O)n(CCN2CCOCC2)c(=O)c2c1nc1n2CCN1c1ccc(Oc2ccccc2)cc1`: the activation is inactive: 0.3%.

Consider `COc1ccc(N2CCN(C(=O)Cn3cnc4c3c(=O)n(C)c(=O)n4C)CC2)cc1`, for which the activation was inactive: -1.05%.

For the compound `CCCC1OP(N)(=O)OCC1CC` (stereo unspecified), the activation is inactive: -0.6%.

Consider `Cn1c(=O)c2c(ncn2CC(=O)NC[C@H]2O[C@@H](n3cnc4c(N)ncnc43)[C@H](O)[C@@H]2O)n(C)c1=O`, for which the activation is inactive: -3.17%.

Consider `CC(C)[C@H](NC(=O)N1CCn2c1nc1ccccc12)C(=O)NCc1ccccc1Cl`, for which the activation is inactive: 0.56%.

For the compound `COc1ccc(CN(C)C(=O)Cn2cnc3c(OCc4ccccc4)ncnc32)cc1OC`, the activation was inactive: -2.99%.

In the case of `O=C(Cn1cnc2ccccc21)NCc1ccccc1`, the activation was inactive: -0.99%.

For `Cc1ccc(C)c(S(=O)(=O)N2CCN(C(=O)Cn3c(C(F)(F)F)nc4ccccc43)CC2)c1`, the activation was inactive: -1.35%.

With `Cc1ccc(-c2csc(NCCn3c(-c4ccncc4)nc4ccccc43)n2)cc1`, the activation is inactive: -0.45%.

Take `Cc1ccc(CNC(=O)Cn2cnc3c(NCc4ccccc4)ncnc32)o1`: the activation was inactive: -4.65%.

For `CCOC(=O)c1ccccc1NC(=O)Cn1c(-c2nonc2N)nc2ccccc21`, the activation is inactive: -1.31%.

Turning to `CC(C)NC(=O)CC1C(=O)N(Cc2ccccc2)C(C)c2nc3ccccc3n21` (stereo unspecified), the activation was inactive: -3.14%.

With `C(=N\c1nc2ccccc2n1CCN1CCCCC1)/c1ccc2c(c1)OCO2`, the activation was inactive: -0.33%.

Regarding `O=C(Cn1c(Cc2ccccc2)nc2ccccc21)NCc1ccc2c(c1)OCO2`, the activation is inactive: -0.73%.

For the compound `O=P(Nc1nc2ccc(Cl)cc2s1)(c1ccccc1)c1ccccc1`, the activation is inactive: -2.26%.

With `COC(=O)C1=C(C)N=C2SCCC(=O)N2C1/C=C/c1ccccc1` (stereo unspecified), the activation was inactive: -1.83%.

Take `COC(=O)c1ccc(CNC(=O)Cn2cnc3c(OCc4ccccc4)ncnc32)cc1`: the activation is inactive: -2.2%.

Consider `O=C(Cn1cnc2c(NCc3ccccc3)ncnc21)NCc1nc2ccccc2[nH]1`, for which the activation is inactive: -2.14%.

With `CC1CCN(C(=O)Cn2c(SCC(=O)Nc3nccs3)nc3ccccc32)CC1`, the activation was inactive: -0.27%.

For `CCOc1ccc(C(O)Cn2c(=N)n(CCN3CCCCC3)c3ccccc32)cc1` (stereo unspecified), the activation is inactive: -2.05%.

With `Cn1c(=O)c2ncn(CC(=O)NCCC3=CCCCC3)c2n(C)c1=O`, the activation is inactive: -0.29%.

For `Cn1c(=O)c2c(ncn2CC(=O)N2CCN(S(=O)(=O)c3ccc(F)cc3)CC2)n(C)c1=O`, the activation was inactive: -2.64%.

As for `CCCn1c(=O)[nH]c(=O)c2c1nc(-c1ccccc1)n2CCN1CCOCC1`, the activation is inactive: -1.62%.

Consider `CCCCC(=O)N/N=C(C)/C=C/c1ccccc1F`, for which the activation was inactive: 3.04%.

`CCN(CC)CCn1c(/N=C/c2cc(Br)ccc2O)nc2ccccc21`: the activation is inactive: -1.09%.

For `CC1CCCC(C)N1C(=O)Cn1c(SCC(=O)NCc2ccc3c(c2)OCO3)nc2ccccc21` (stereo unspecified), the activation is inactive: 0.46%.

As to `O=C(Cn1c(-c2cscn2)nc2ccccc21)Nc1ccc(Cl)cc1`, the activation was inactive: -0.67%.

Consider `S=C=Nc1cccc(C2(N3CCCCC3)CCCCC2)c1`, for which the activation is inactive: 1.41%.

In the case of `CCC(=O)Nc1ccc2c(c1)nc1n2CCN(CCOC)C1`, the activation was inactive: -0.61%.

In the case of `O=C(c1cccc(Cl)c1)N1CCn2c1nc1ccccc12`, the activation was inactive: -3.39%.

For `C=CCOC(=O)C1=C(C)N=C2SCCC(=O)N2C1/C=C/c1ccccc1OC` (stereo unspecified), the activation is inactive: -0.8%.

As to `CCCCNc1nc2ccccc2n1CC(=O)N1CCc2ccccc2C1`, the activation is inactive: -2.22%.

For the compound `COc1ccc(C)cc1S(=O)(=O)N1c2ccc(C)cc2C2CN(C)CCC21` (stereo unspecified), the activation is inactive: -0.76%.

`Cc1n[nH]c(C)c1CCC(=O)N/N=C/C=C/c1ccccc1`: the activation was inactive: -1.12%.

In the case of `O=C1Cn2c(nc3ccccc32)N1c1ccccc1F`, the activation is inactive: -0.86%.

On to `N=c1n(CCCOc2ccc(F)cc2)c2ccccc2n1CC(N)=O`, for which the activation was inactive: -3.13%.

For the compound `O=C(Cn1cnc2c(OCc3ccccc3)ncnc21)NCCN1CCOCC1`, the activation was inactive: -3.93%.

As to `CCc1cccc(CC)c1NC(=O)Cn1c(-c2ccccc2Cl)nc2ccccc21`, the activation is inactive: 0.56%.

Take `COCCCNC(=O)CC1C(=O)N(Cc2ccccc2)C(C)c2nc3ccccc3n21` (stereo unspecified): the activation was inactive: -3.09%.

For `CCCCCCNCCn1cnc2c(N)ncnc21`, the activation is inactive: -1.75%.

Regarding `O=C(Nc1nc2ccccc2n1CCN1CCOCC1)c1ccc(Cl)cc1`, the activation is inactive: 0.43%.

Consider `Nc1cc(N)c2nonc2c1[N+](=O)[O-]`, for which the activation was inactive: 1.88%.

Consider `O=C(Cn1cnc2c(NCc3ccccc3)ncnc21)NCCN1CCOCC1`, for which the activation was inactive: -2.63%.

Take `CN(C)CCn1c(COc2ccccc2)nc2ccccc21`: the activation was inactive: -2.25%.

On to `Cc1ccccc1C(=O)Nc1cccc(NC(=O)Cn2cnc3c(=O)n(C)c(=O)n(C)c32)c1`, for which the activation was inactive: -0.91%.

In the case of `N=c1n(CCOc2ccccc2)c2ccccc2n1CCN1CCOCC1`, the activation was inactive: -3.75%.

On to `CC(C)CC(=O)NC(Sc1ccc(Cl)cc1)C(Cl)(Cl)Cl` (stereo unspecified), for which the activation was inactive: 3.4%.

On to `CSCC[C@H](NC(=O)N1CCn2c1nc1ccccc12)C(=O)NCc1ccc(C)cc1`, for which the activation was inactive: 0.51%.

Turning to `CCN(C(=O)Cn1cnc2c1c(=O)n(C)c(=O)n2C)C1CCS(=O)(=O)C1` (stereo unspecified), the activation is inactive: -2.97%.

`CCN(C(=O)Cn1cnc2c1c(=O)n(C)c(=O)n2C)C1CCCCC1`: the activation is inactive: -3.41%.

With `CCC(=O)N1c2ccc(S(=O)(=O)CCC(=O)N3CCn4c3nc3ccccc34)cc2CC1C` (stereo unspecified), the activation is inactive: 1.04%.

With `Oc1ccccc1CNc1ccccn1`, the activation is inactive: 1.28%.

With `COCCN1CCn2c(nc3cc([N+](=O)[O-])ccc32)C1`, the activation is inactive: 0.06%.

Regarding `Cc1ccc(-c2csc(N3CCN(c4cc5c(cc4Cl)nc(-c4ccncc4)n5CCN4CCCCC4)CC3)n2)cc1`, the activation is inactive: -0.63%.

As to `CC(C)[C@H](NC(=O)N1CCn2c1nc1ccccc12)C(=O)NCC1CCCO1` (stereo partly specified), the activation was inactive: -1.84%.

Turning to `O=C(NC(Sc1ccncn1)C(Cl)(Cl)Cl)c1ccccc1` (stereo unspecified), the activation is inactive: -1.93%.

For `Cn1c(=O)c2c(ncn2CC(=O)Nc2cc(S(=O)(=O)N3CCCCC3)ccc2O)n(C)c1=O`, the activation was inactive: -3.33%.

As to `Nc1ncnc2c1ncn2CCN1CCCCC1`, the activation is inactive: -1.54%.

Regarding `O=C(Cn1c(CO)nc2ccccc21)NCCc1ccc(F)cc1`, the activation was inactive: -1.06%.

As for `CN1CC[C@]2(CCN3CCc4c(oc5ccccc45)[C@@H]3C2)N(C)C1=O`, the activation is inactive: -1.53%.

For the compound `COc1ccccc1OP(=O)(Nc1ccc(C)cn1)Oc1ccccc1OC`, the activation was inactive: -3.63%.

As to `CN1CCN(CCN2CCn3c2nc2ccccc23)CC1`, the activation is inactive: -3.1%.

Take `CCC(C)(C)n1nnnc1CN1CCC(n2c(C)nc3cc(C(F)(F)F)ccc32)CC1`: the activation was inactive: 3.99%.

In the case of `Cc1nc2cc(F)ccc2n1C1CCN(Cc2nnnn2CCc2ccccc2)CC1`, the activation is inactive: -2.63%.

Consider `O=C1Cn2c(nc3ccccc32)N1c1cccc(C(F)(F)F)c1`, for which the activation was inactive: 2.18%.

On to `COc1ccc(C(=O)CSc2nc3ccccc3n2CC(=O)NC(C)(C)C)cc1`, for which the activation is inactive: -0.83%.

With `CCOc1cc(N2CCOCC2)c(OCC)cc1NC(=O)Cn1cnc2c(=O)n(C)c(=O)n(C)c21`, the activation is inactive: -1.44%.

Consider `COc1ccc(CNC(=O)CCCCCNC(=O)N2CCn3c2nc2ccccc23)cc1`, for which the activation is inactive: -2.78%.

Regarding `CN1CCCC(OC(=O)C(c2ccccc2)c2ccccc2)C1` (stereo unspecified), the activation was inactive: -0.97%.

On to `CCCCOC(=O)Cn1c(=N)n(CCN2CCOCC2)c2ccccc21`, for which the activation is inactive: -2.43%.

Turning to `O=C(Cn1c(NCCO)nc2ccccc21)NCCc1ccccc1`, the activation is inactive: 0.74%.

With `Cc1ccc(/C=N/NC(=O)Cn2cnc3ccccc32)cc1`, the activation is inactive: -3.03%.

As for `Clc1ccc(Cl)c(NC2=NCC(CBr)S2)c1` (stereo unspecified), the activation was inactive: -0.53%.

Regarding `CCC(C(=O)NC1CCCCC1)n1c(SCc2ccc(F)cc2)nc2ccncc21` (stereo unspecified), the activation was inactive: 0.7%.
